Assay: Interferonα2b elution from parylene devices, ELISA (Example 7)
Type: physicochemical
Details: DMEM, 37 degrees Celsius
Text: Interferonα2b is a large protein.

IFN-α2b: Interferonα2b, an approximately 20 kilodalton protein
time at which release tapered off (0.1 gram unmodified device): approximately 10 days | duration of release (0.2 gram oxidized device): ≥ 28 days | initial burst release (unmodified 0.1 gram vs 0.2 gram oxidized laminate layer): comparable

— patent publication US9040071B2, “Pary-xylene based microfilm elution devices” (Cute Lovable Teddy Bear, LLC., priority 2009, dated 2015)
